We go through 1 compound from patent US9163030B2 (priority 2012, dated 2015).

Chains of the proteins cited; added tags and fusions are not shown. Lines headed by an entry give the natural chain unless they say otherwise; changes in a name come on top.
UniProt P41145: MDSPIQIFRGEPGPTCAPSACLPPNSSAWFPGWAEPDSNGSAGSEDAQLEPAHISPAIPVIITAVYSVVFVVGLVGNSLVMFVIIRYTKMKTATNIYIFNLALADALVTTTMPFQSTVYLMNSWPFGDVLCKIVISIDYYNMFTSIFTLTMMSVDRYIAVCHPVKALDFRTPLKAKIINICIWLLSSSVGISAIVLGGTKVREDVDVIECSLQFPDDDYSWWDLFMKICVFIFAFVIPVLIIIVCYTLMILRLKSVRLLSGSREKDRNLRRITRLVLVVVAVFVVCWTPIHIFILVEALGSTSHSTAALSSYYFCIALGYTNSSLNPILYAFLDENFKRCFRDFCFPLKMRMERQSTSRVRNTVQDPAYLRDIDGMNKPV

The target of assay [1] is T1, KOR (Homo sapiens, UniProt P41145).
T1 construct: expressed in transfected cells; host or cells: CHO (hKOR-CHO)
Put plainly: biochemical. Type of assay: binding.

Assay [2] addresses T1, KOR. The experiment in a line: [35S]GTP-γ-S binding assay, hKOR-CHO cells. It is filed as biochemical. The following applies: stimulation of [35S]GTP-γ-S binding; no stim = no stimulation.

The term Ki denotes a dissociation constant, usually derived from enzyme kinetics or from competition with a known ligand. High values mean a looser hold on the target, low ones a stronger hold on the target.

In the case of `Oc1ccc2c3c1OC1c4ncc(-c5ccc(Cl)cc5)cc4CC4(OCCCc5ccccc5)C(C2)N(CC2CC2)CCC314` (stereo not drawn) [Compound 17d, 5′-(4-Chlorophenyl)-17-(cyclopropylmethyl)-6,7-didehydro-4,5α-epoxy-3-hydroxy-14-(3-phenylpropoxy)pyrido[2′,3′:6,7]morphinan], on KOR [1], the Ki stood at 1.82 ± 0.11 nM. In addition, at KOR [2], the “agonist activity KOR EC50” value is “no stim”.
